From patent publication US20160222024A1, “S-ENANTIOMER OF TETRACYCLIC INDOLE DERIVATIVE AS PBR LIGANDS” (priority 2013, published 2016)

Protein sequences, listed by entry. Tags and fused reporters are not part of them. Residues count along the entry.
UniProt P30536, 2-169 T147A: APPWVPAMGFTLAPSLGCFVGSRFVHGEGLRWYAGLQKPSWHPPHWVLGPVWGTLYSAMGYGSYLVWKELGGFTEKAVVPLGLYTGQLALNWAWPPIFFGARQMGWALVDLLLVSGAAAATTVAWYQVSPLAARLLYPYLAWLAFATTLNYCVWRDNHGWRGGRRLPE

Molecular target: TSPO (Homo sapiens, UniProt P30536, T147A)
Conditions: read-out: High Affinity Site; human platelet membranes of high affinity donors; 5 nM [3H]PK11195; 37° C.; resolved enantiomers

CCC(C)N(C)C(=O)c1cc2ccccc2c(-c2ccccc2Cl)n1 (stereo not shown) [PK11195]
Ki: 4 nM
